Reference: ChEMBL document CHEMBL5500327, “Targeting insulin-like growth factor 2 mRNA-binding proteins (IGF2BPs) for the treatment of cancer” (Eur J Med Chem, 2024)

Species on record: Homo sapiens
Assay: Inhibition of full length IMP-1 (unknown origin) binding to fluorescein labeled 93 nucleotide c-Myc mRNA expressed in Escherichia coli BL21 (DE3) pLysS at 5 uM by FAMA method relative to control

CC(NC(=O)CSc1nnc2c3cc(Br)ccc3n(C)c2n1)c1ccccc1 (stereo unspecified)
inhibition: 72%
